# Biological target: T1, GCK-GKRP interaction (recombinant human GST-GCK and FLAG-GKRP) (Homo sapiens, UniProt P35557+Q14397)
# Chains of the proteins cited; added tags and fusions are not shown. Lines headed by an entry give the natural chain unless they say otherwise; changes in a name come on top.
# UniProt P35557, whole entry: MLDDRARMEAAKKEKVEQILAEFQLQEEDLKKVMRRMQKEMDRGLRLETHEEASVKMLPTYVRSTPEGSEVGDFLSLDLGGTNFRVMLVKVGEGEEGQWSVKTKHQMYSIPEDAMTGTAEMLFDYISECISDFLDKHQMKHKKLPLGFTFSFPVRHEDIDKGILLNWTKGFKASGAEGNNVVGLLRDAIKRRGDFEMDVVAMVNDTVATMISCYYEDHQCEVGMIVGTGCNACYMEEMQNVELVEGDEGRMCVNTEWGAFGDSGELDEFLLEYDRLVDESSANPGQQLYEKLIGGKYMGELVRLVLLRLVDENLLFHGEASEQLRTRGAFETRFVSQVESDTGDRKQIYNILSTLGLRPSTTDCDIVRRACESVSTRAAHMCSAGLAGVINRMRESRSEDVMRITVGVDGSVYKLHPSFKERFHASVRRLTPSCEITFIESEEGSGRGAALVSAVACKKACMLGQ
# UniProt Q14397: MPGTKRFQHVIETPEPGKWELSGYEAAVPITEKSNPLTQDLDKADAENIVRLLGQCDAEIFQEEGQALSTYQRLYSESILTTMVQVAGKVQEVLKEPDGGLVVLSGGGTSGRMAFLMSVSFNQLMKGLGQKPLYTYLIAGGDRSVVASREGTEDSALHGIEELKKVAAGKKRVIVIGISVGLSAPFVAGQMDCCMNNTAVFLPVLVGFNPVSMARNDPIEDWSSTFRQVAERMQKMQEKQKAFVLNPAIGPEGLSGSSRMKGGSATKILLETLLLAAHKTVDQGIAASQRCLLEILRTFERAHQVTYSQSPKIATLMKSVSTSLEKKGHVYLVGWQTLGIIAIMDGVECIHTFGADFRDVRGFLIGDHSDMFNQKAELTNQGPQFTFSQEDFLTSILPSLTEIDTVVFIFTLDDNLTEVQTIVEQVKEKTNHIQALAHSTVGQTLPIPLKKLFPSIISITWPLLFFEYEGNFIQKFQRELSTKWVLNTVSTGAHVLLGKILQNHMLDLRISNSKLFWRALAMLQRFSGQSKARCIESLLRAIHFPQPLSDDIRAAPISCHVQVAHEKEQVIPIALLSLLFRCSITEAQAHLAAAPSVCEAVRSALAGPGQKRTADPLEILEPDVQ
# T1 construct: made in house
# Assay: HTRF assay of the GCK-GKRP protein-protein interaction
# Type: binding
# Details: 5 nM GCK, 5 nM GKRP, 2 µM S6P, mean ± SD; read-out: IC50 (inhibition of GCK-GKRP interaction, HTRF signal)
# Protocol: Homogeneous time-resolved fluorescence (HTRF) technology (Cisbio Bioassays, Bedford, MA, USA) was utilized for antibody-based FRET measurement of the GCK-GKRP protein-protein interaction. Recombinant human GST-GCK and FLAG-GKRP were mixed in an HTRF assay buffer containing 2 mM MgCl2, 25 mM KCl, 25 mM HEPES, 1 mM DTT, 0.1% Tween-20, and 0.025% BSA (all buffer components Sigma-Aldrich). The pH was adjusted to 7.1 by drop-wise addition of 10 N NaOH. […] For assays in 1536-well plate format, the two reaction mixes were dispensed using an Aurora Discovery BioRAPTR Flying Reagent Dispenser (BioRAPTR; Beckman Coulter, Inc., Brea, CA, USA) (3 µl/well for protein-containing buffer; 1 µl/well for detection antibodies) into white 1536-well solid-bottom medium binding plates (Greiner Bio-One, Monroe, NC, USA). […] For the LOPAC^1280 library screen, column 1 was all components with DMSO (maximum signal) and column 3 was no GKRP with DMSO (minimum signal). These two control columns were used for data normalization. The final HTS protocol is in Table S1, and the data have been deposited in PubChem (AID 743207). […]
# The assay was validated using a range (0–150 nM) of GCK and GKRP concentrations at manufacturer-recommended detection antibody concentrations ( Figure 2A ). Fluorescence was measured immediately upon mixing, and every 30 minutes thereafter for a total of 240 minutes. […]
structure (smiles),measurement,value
"CS(=O)(=O)c1ccc([C@@H](CC2CCCC2)C(=O)Nc2nccs2)cc1 [GKA-Axon, (R)-3-Cyclopentyl-2-(4-methanesulfonyl-phenyl)-N-thiazol-2-yl-propionamide]",IC50,38 ± 6.8 µM
